The values that follow come from article PMC6838683, “Discovery of Human Signaling Systems: Pairing Peptides to G Protein-Coupled Receptors” (Cell, 2019).

Protein sequences, listed by entry. Tags and fused reporters are not part of them.
UniProt P41143, whole entry: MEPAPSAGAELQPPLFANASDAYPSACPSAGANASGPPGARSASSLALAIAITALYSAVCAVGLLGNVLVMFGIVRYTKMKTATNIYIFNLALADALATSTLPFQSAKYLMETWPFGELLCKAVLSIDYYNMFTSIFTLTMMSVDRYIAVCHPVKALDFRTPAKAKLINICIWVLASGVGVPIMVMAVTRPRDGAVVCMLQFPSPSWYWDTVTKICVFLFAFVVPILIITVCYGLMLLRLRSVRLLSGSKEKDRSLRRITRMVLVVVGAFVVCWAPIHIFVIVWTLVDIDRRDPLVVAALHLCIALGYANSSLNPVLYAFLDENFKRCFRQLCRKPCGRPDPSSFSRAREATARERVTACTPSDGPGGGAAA

For the assay, the target named is T1, OPRD1 (Homo sapiens, UniProt P41143).
T1 construct: host or cells: HTLA cells (HEK293-derived)
The experiment in a line: β-arrestin recruitment (Tango), known peptide receptors. To be noted: endogenous ligand(s) included in peptide library. Type of assay: cell-based. An excerpt: Supplement mmc6.xlsx, sheet "Peptide GPCR controls" | column: Confirmed?

On to Dynorphin A, for which the “Confirmed? (confirmation of b-arrestin recruitment)” value is “No”. Then Leu-enkephalin, with “No”.
